# Laboratory results: PubChem BioAssay AID908 (National Center for Advancing Translational Sciences (NCATS), 2007)
# Protein sequences, listed by entry. Tags and fused reporters are not part of them. Residues count along the entry.
# UniProt P55210, 24-198 limits assumed: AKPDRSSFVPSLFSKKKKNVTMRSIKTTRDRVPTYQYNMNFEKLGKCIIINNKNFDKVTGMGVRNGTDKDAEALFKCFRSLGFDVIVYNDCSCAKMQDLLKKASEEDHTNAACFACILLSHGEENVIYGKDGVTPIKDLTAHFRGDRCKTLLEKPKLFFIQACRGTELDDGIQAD
# UniProt P55210, 207-303 limits assumed: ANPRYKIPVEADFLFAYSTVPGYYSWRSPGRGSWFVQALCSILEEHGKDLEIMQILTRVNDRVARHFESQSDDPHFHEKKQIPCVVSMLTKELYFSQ
# The list shows a part of the results, in another mix than the full data. Records with an inconclusive call do not appear. The source made the active and inactive calls. Calls come from the whole dose curve; as a rule, active = well fitted inhibition curve with a large enough effect in the main read-out, with a control signal flat; inconclusive = small, poorly fitted or top-dose-only effect, or a change in a side signal; inactive = no such curve, though single readings can be large or run the other way.
# Molecular target: Caspase-7 (Homo sapiens) (UniProt P55210)
# Test: Concentration-Response Counterscreen for Redox Active Inhibitors of Caspase-7: Cysteine
# Settings: caspase-7 enzyme with cysteine, fluorogenic substrate; at 57.5 µM (top of the series)
# Text: NIH Molecular Libraries Screening Centers Network [MLSCN]
# NIH Chemical Genomics Center [NCGC]
# PI Name: Dr. James Wells,
# Dr. Enrique Perez-Paya, Dr.Janice Williams, Dr. Dennis Wolan, a person
# The caspases (Cysteine Aspartyl Protease) comprise a related family of 14 dimeric proteases that are critical mediators of apoptosis (programmed cell death) and inflammation. The caspases represent an important class of drug targets for stroke, ischemia, cancer and inflammatory diseases. […] One goal of this project was to identify compounds that act as allosteric inhibitors via stabilizing the procaspase form of the enzyme. […]
# The biochemical assay was configured using purified caspase 7 at a high enzyme concentration to promote formation of the homodimers and thus facilitate the identification of allosteric inhibitors. […] After initiation of the assay with substrate the plates were rapidly read using an automated robotic system (Kalypsys, Inc.) to maintain consistent timing. […] Product formation was also measured after 1 hour. […]
# Caspase 7 was prepared in buffer (50 mM HEPES pH 7.5, 50 mM KCl, 200 mM NaCl, 10 mM Cys (Aldrich cat# 861677), 0.1% CHAPS) at a concentration of 66.6 nM and 3 uL was dispensed to all wells using black solid Kalypsys 1536-well plates. […] The plates were then exposed using 405 nm excitation/520 nm emission filters for 4 sec and read at 20 sec intervals for 3 min. […]
structure (smiles),measurement,value
C/C1=C2N=C(/C=C3N=C(/C(C)=C4\[N-][C@@](C)([C@H]5N=C1[C@@](C)(CCC(=O)NC[C@H](C)OP(=O)([O-])O[C@@H]1[C@H](O)[C@H](n6cnc7cc(C)c(C)cc76)O[C@@H]1CO)[C@@H]5CC(N)=O)[C@](C)(CC(N)=O)[C@H]4CCC(N)=O)[C@@](C)(CC(N)=O)[C@@H]\3CCC(N)=O)C(C)(C)[C@@H]/2CCC(N)=O.[C-]#N.[Co+3],"activity change, negative = inhibition",inactive: -22.6%
